# The entries are a selection whose mix differs from that of the whole data set. Inconclusive results are not listed. Some structures show a salt or complex split into parts, the way the source records it. Activity calls are given as the source filed them. The call rests on the fitted dose curve; in most records, active means well fitted activation curve with a large enough effect; inconclusive means small, poorly fitted or top-dose-only effect; inactive means no such curve, though single readings can be large or run the other way.
# Experiment: qHTS Assay for Rab9 Promoter Activators; further: % of control where 0% means no effect; nearly all actives have a fitted effect of over 60% in size
# Details: Huh7 Rab9 promoter-luciferase reporter, luminescence, 24 h; at 9.22 µM (top of the series) unless noted
row,SMILES,"activation, negative = inhibition"
1,CCCOc1ccc(C(=O)NCC2(N(C)C)CCCCC2)cc1,inactive: -0.0534%
2,CC(C)(C)OC(=O)N1CCC(Nc2ccccc2)CC1,inactive: -0.578%
3,O=C(O)C1(Nc2ccccc2)CCN(Cc2ccccc2)CC1,inactive: -1.59%
4,CCOc1ncccc1C(=O)NCC1(N2CCOCC2)CCCCC1,inactive: 0.378%
5,CN1CCC(Nc2ccc(F)c(Cl)c2)CC1,inactive: 3.1%
6,CCCOc1ccc(C)cc1CN(CCCl)CCCl,inactive: -2.83%
7,CN1CCC(Nc2ccc(Cl)cc2)CC1,inactive: 2.69%
8,CCC(CO)(C(=O)OC1CN2CCC1CC2)c1ccccc1 (stereo not given),inactive: -4.11%
9,COc1cc(OC)cc(C(=O)NCC2(N3CCOCC3)CCCCC2)c1,inactive: 22.9%
10,COc1cccc(C(=O)N(c2cc(C)cc(C)c2)C2CCN(C(=O)OC(C)(C)C)CC2)c1,inactive: -5.25% [at 1.84 µM]
11,Cc1ccc(C(=O)NCC2(N3CCCCC3)CCCCC2)o1,inactive: -2.38%
12,Fc1ccccc1NC1CCN(Cc2ccccc2)CC1,inactive: 5.69%
13,COc1cc(OC)cc(C(=O)NCC2(N3CCCCC3)CCCCC2)c1,inactive: -6.28%
14,O=C(NCC1(N2CCCCC2)CCCCC1)c1ccco1,inactive: -1.33%
15,CN(C)c1ccc(C(=O)NCC2(N3CCCCC3)CCCCC2)cc1,inactive: -6%
16,CCN1CCC(Nc2cccc(F)c2)CC1,inactive: -8.3%
17,CCOC(=O)C(CC)C1=NC(C)(C)Cc2ccccc21.O=[N+]([O-])c1cc([N+](=O)[O-])c(O)c([N+](=O)[O-])c1 (stereo not given),inactive: -9.68%
18,CC(C)(C)OC(=O)N1CCC(N(C(=O)c2ccccc2)c2ccc(Cl)cc2)CC1,inactive: -1.87%
19,N#Cc1ccc(C(=O)NCC2(N3CCCCC3)CCCCC2)cc1,inactive: -1.85%
20,c1ccc(CN2CCC(Nc3ccccc3)CC2)cc1,inactive: 4.66%
21,CCCN1CCC(Nc2cc(OC)cc(OC)c2)CC1,inactive: 1.57%
22,CN(C)C1(CNC(=O)c2cccc(C#N)c2)CCCCC1,inactive: -4.22%
23,COc1ccc(C(=O)NCC2(N3CCOCC3)CCCCC2)cc1OC,inactive: -19.3%
24,O=C(NCC1(N2CCOCC2)CCCCC1)c1cc(Br)ccc1Cl,inactive: -2.61%

row,SMILES,"activation, negative = inhibition"
1,O=C(OC1CN2CCC1CC2)C1c2ccccc2C=Cc2ccccc21 (stereo not given),inactive: 2.48%
2,CCc1cc(C(=O)NCC2(N3CCCCC3)CCCCC2)sc1C,inactive: -5.85%
3,O=C(O)c1cccc(Nc2c([N+](=O)[O-])cc([N+](=O)[O-])cc2[N+](=O)[O-])c1,inactive: 0.0243%
4,N/C(=N\O)c1c(N)no[n+]1[O-],inactive: -3.82%
5,CCOC(=O)N1CCC(Nc2ccc(C)cc2)CC1,inactive: -1.82%
6,COc1cc(OC)c(C(=O)NCC2(N(C)C)CCCCC2)cc1OC,inactive: 4.36%
7,COc1ccc(CN(CCCl)CCCl)cc1Cl,inactive: -1.68%
8,O=[N+]([O-])c1cc([N+](=O)[O-])c(OC2CCCCC2O)c([N+](=O)[O-])c1 (stereo not given),inactive: 10.2%
9,CN(C)c1cccc(C(=O)NCC2(N3CCCCC3)CCCCC2)c1,inactive: -9.53%
10,CCCOc1ccc(C(=O)NCC2(N(C)C)CCCCC2)cc1OC,inactive: -4.97%
11,O=C(NCC1(N2CCCCC2)CCCCC1)c1cncc(Br)c1,inactive: -5.11%
12,COc1ccc2c(c1O)-c1c(O)c(OC)cc3c1[C@H](C2)[N+](C)(C)CC3.O=[N+]([O-])c1cc([N+](=O)[O-])c([O-])c([N+](=O)[O-])c1[O-],inactive: -3.21%
13,O=C(OC1CN2CCC1CC2)c1ccc([N+](=O)[O-])cc1 (stereo not given),inactive: 1.56%
14,CSc1ccc(C(=O)NCC2(N3CCOCC3)CCCCC2)cc1,inactive: -1.79%
15,CCN1CCC(Nc2ccc(Cl)cc2)CC1,inactive: 2.72%
16,N#CC1(Nc2ccccc2)CCN(CCc2ccccc2)CC1,inactive: 3.53%
17,O=C(NCC1(N2CCCCC2)CCCCC1)c1ccc(OC(F)F)cc1,inactive: -12.2%
18,CN1CCN(CCOC(=O)C(O)(c2ccccc2)c2ccccc2)CC1,inactive: -0.818%
19,COc1ccc(NC2CCN(C(=O)OC(C)(C)C)CC2)cc1,inactive: 4.34%
20,CC(C)c1ccc(C(=O)NCC2(N3CCOCC3)CCCCC2)cc1,inactive: -5.75%
21,COc1cc(C(=O)NCC2(N3CCCCC3)CCCCC2)ccc1OC(F)F,inactive: -9.92%
22,O=C(NCC1(N2CCOCC2)CCCCC1)c1cc(=O)[nH]c2ccccc12,inactive: -2.29%
23,O=C(NCC1(N2CCCCC2)CCCCC1)c1cccc(C(F)(F)F)c1,inactive: -5.52%
24,O=[N+]([O-])c1cc([N+](=O)[O-])c(NCC2CCS(=O)(=O)C2)c([N+](=O)[O-])c1 (stereo not given),inactive: 10%

row,SMILES,"activation, negative = inhibition"
1,O=C(NCC1(N2CCCCC2)CCCCC1)c1ccc(F)cc1,inactive: -4.55%
2,CCCCOc1ccc(C(=O)NCC2(N3CCOCC3)CCCCC2)cc1,inactive: -7.41%
3,COc1ccc(NC2CCN(CCc3ccccc3)CC2)c(OC)c1,inactive: -3.39%
4,CCOC(=O)N1CCC(Nc2ccc(F)cc2)CC1,inactive: 4.04%
5,CCOc1ccc(C)cc1CN(CCCl)CCCl,inactive: -4.09%
6,COc1cc(C(=O)NCC2(N(C)C)CCCCC2)ccc1OC(F)F,inactive: -5.82%
7,CCOC(=O)N1CCC(Nc2cccc(C)c2)CC1,inactive: 0.401%
8,Cc1ccc(OCC(C)C)c(CN(CCCl)CCCl)c1,inactive: -2.98%
9,CSc1ccccc1C(=O)NCC1(N2CCCCC2)CCCCC1,inactive: -0.0228%
10,O=C(NCC1(N2CCCCC2)CCCCC1)c1ccc(=O)[nH]c1,inactive: -3.36%
11,O=C(NCC1(N2CCCCC2)CCCCC1)c1cccs1,inactive: 0.144%
12,COc1ccc(C(=O)NCC2(N3CCCCC3)CCCCC2)cc1,inactive: -11.4%
13,COc1ccc(C(=O)NCC2(N3CCCCC3)CCCCC2)c(OC)c1OC,inactive: -3.05%
14,CC(C)(C)OC(=O)N1CCC(N(C(=O)c2ccccc2)c2ccc(F)cc2)CC1,inactive: -1.65% [at 1.84 µM]
15,CCOC(=O)N1CCC(Nc2ccc(OC)cc2)CC1,inactive: 1.68%
16,O=C(OC1CN2CCC1CC2)C1c2ccccc2Oc2ccccc21 (stereo not given),inactive: -2.33%
17,O=C(NCC1(N2CCCCC2)CCCCC1)c1ccc(Cl)s1,inactive: -8.44%
18,N#CC1(Nc2ccccc2)CCN(Cc2ccccc2)CC1,inactive: -1.83%
19,COc1ccc(Cl)cc1C(=O)NCC1(N2CCOCC2)CCCCC1,inactive: 0.792%
20,O=C(NCC1(N2CCOCC2)CCCCC1)c1cc2ccccc2o1,inactive: -1.25%
21,O=C(NCC1(N2CCCCC2)CCCCC1)c1ccc(Cl)nc1,inactive: -13.7%
22,Cc1cc(C)cc(N(C(=O)c2ccccc2)C2CCN(C(=O)OC(C)(C)C)CC2)c1,inactive: -0.337%

# Reference: PubChem BioAssay AID485297 (National Center for Advancing Translational Sciences (NCATS), 2010)
